Experimental findings from patent publication US20260382635A1, “NITROSYL-HEME FORMULATIONS FOR THE TREATMENT OF CARDIOVASCULAR CONDITIONS, HEMOLYSIS, AND THE STABILIZATION OF CELL-FREE HEME MOLECULES” (published 2026) are described below.

The subject of the assay is mice. Kind of assay: Changes in murine mean arterial pressure (MAP). To be noted: for time course of MAP after injection, words: i.v. The procedure:
A total of 70 male C57BL/6J mice (the Jackson Laboratory), aged between 12 to 14 weeks, were anesthetized by isoflurane (2.5%) for all experiments. Mice were in rooms maintaining 12/12 h light/dark cycles at 20-26 °C and 30-70% relative humidity. 10 of these total mice were used to establish the parameters of the model. Body temperature was maintained at 37 °C by a heating pad connected to heat pump (Androit). Catheters were implanted for carotid artery and jugular vein. Arterial blood pressure was continuously recorded through a blood pressure transducer (MLT699, ADInstrument) connected to an 8-channel Powerlab (ADInstrument). A tracheal tube was introduced and connected to a rodent ventilator (Model 849, MidiVent). Upon completion, in some animals, the fraction of inspiratory O2 was decreased from 21% to 10% to induce hypoxia. 75 μL of L-NAME was administered intravenously in a bolus at a dose of 10 mg/kg bodyweight. Ten minutes after L-NAME injection, animals were injected with 50 μL of NO-ferroheme, normal saline (NS), NO control, or freshly prepared GSNO^77 control for 4 times at 10-minute intervals. An NO-ferroheme in albumin stock was prepared via a concentrated version of the direct method as described above: 300 μM ferric heme was mixed anaerobically on a Schlenk line with 3 mM GSH and 600 μM NO in 500 μM albumin using air-tight Hamilton syringes. NO controls were generated similarly and comprised 300 μM dissolved NO with 3 mM GSH in anaerobic albumin solution. Likewise, GSNO stocks comprised 300 μM GSNO with 3 mM GSH in anaerobic albumin solution. Each of these stocks (NO-ferroheme, NO control, or GSNO control) were handled identically and diluted further in air with 500 μM albumin solution before injection by 1000-, 100-, and 10-fold. Mean arterial pressure (MAP) values were obtained by processed the recorded arterial pressure data with LabChart 7.3.8 (ADInstruments). To quantify changes ΔMAPmax was determined, defined as the average MAP before an injection (average of 3 to 5 time points) subtracted from the maximum change within 3 minutes after injection (average of 3-5 time points) for each species at a given concentration.
Using male C57BL/6J mice, catheters were inserted into the right carotid artery and jugular vein for monitoring MAP and for dose injections, respectively. Fresh NO-ferroheme stock solutions were generated in an anaerobic environment by mixing 300 μM hemin, 3 mM glutathione, 600 μM NO, and 500 μM bovine serum albumin in PBS. To establish that vasodilation was independent of endogenous eNOS-derived NO, mice were first treated with the NOS inhibitor L-NG-nitroarginine methyl ester (L-NAME). Four doses of NO-ferroheme were administered at estimated blood concentrations of 7.5 nM, 75 nM, 0.75 μM, and 7.5 μM. Doses were injected intravenously every ten minutes, long enough for the blood pressure to stabilize.
Injections of NO-ferroheme solution in hypoxic animals were characterized by a rapid, transient relaxation, as monitored by changes in MAP. The MAP almost completely returned to the L-NAME induced baseline after ten minutes when compared to normal saline controls (FIG. 5A). […] These changes were also significant versus normal saline at 75 nM under normoxic conditions (p=0.0002), 0.75 μM and 7.5 μM (p<0.0001, FIG. 5D, open squares vs circles).
This synthesis can involve multiple potential vasodilators including NO itself, GSNO, and NO-ferroheme. Therefore, it was desirable to define the dominant vasodilating species. The vasodilation potency of NO and GSNO was compared. Fresh stocks of NO were made (300 μM NO, 3 mM glutathione, and 500 μM albumin) and mice were injected in 10-minute intervals at the same dosing as the NO-ferroheme albumin injections (7.5 nM, 75 nM, 0.75 μM, and 7.5 μM dissolved NO) under 10% hypoxia and normoxia (FIGS. 5A and 5B, hashed traces). […]

Take `C=CC1=C(C)c2cc3[nH]c(cc4nc(cc5[nH]c(cc1n2)c(C)c5CCC(=O)O)C(CCC(=O)O)=C4C)c(C)c3C=C.[Fe+2]`: the “vasodilation under hypoxia vs normoxia, words” value (10% vs 21% oxygen) was “elicits similar vasodilation under hypoxia and normoxia”. Moreover, the “vasodilatory response vs nitrite, words” value (comparable hypoxic conditions) is “more potent than treatment with nitrite”. Further, the “time course of MAP after injection, words” value was “almost completely returned to the L-NAME induced baseline after ten minutes” (hypoxia, L-NAME) and “rapid drop in MAP followed by blood pressure recovery to baseline MAP” (normoxia, L-NAME).

As for `[N]=O`, for the setting “7.5 nM-7.5 μM, except highest dose of dissolved NO (7.5 μM)”, the “change in MAP vs normal saline, words” value is “no significant changes in MAP”. Also, where the note is “hypoxia, L-NAME, 7.5 nM, 75 nM, 0.75 μM, 7.5 μM i.v.”, the “vasodilation, words” value is recorded as “elicited little vasodilatory response”.
